Screening results: PubChem BioAssay, National Center for Advancing Translational Sciences (NCATS)
JMJD2E inh: inhibitors of human JMJD2E histone demethylase. B2RXH2. JMJD2E catalytic domain, FDH-coupled NADH fluorescence (FDH is formaldehyde dehydrogenase). Potency, µM (titrated, usually from 57.1 µM), without a hit: at the top dose activity change, negative = inhibition, hits mostly inhibitors. 230,000 compounds, 1.6% hits; active = well fitted inhibition curve with a large enough effect, not every such curve was filed as active; inconclusive = small, poorly fitted or top-dose-only effect, or another doubt; inactive = no such curve, though single readings can be large or run the other way;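 also: potency is read from the fitted curve at half-maximal effect; 0% = wells with enzyme and -100% = buffer wells without enzyme; nearly all actives have a fitted effect of over 50% in size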
miR-21 reporter: raises the signal of a miR-21 reporter | HeLa miR-21 FLuc reporter, luciferase, 48 h | Potency, µM (highest dose often 38.3 µM), inactives show at the highest dose reporter change, positive = more light | 340,000 tested, under 10 active | AID 2288; active = well fitted rising curve with a large enough effect; inconclusive = small, poorly fitted or top-dose-only effect; inactive = no such curve, though single readings can be large or run the other way;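 note: % of control where 0% means no effect; miR-21 action dims this reporter so a rising signal means less miR-21 action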
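Luminescence from a firefly luciferase reporter carrying a miR-21 binding site downstream, stably expressed under a CMV promoter in HeLa cells that make miR-21 endogenously, reports miRNA modulation after 48 h compound exposure up to approximately 40uM final.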
Lamin A splicing: LMNA splicing modulation | HeLa LMNA splicing GFP/RFP minigene ratio, 48 h | Potency, µM (top dose mostly 46.1 µM), without a hit: top-dose ratio change, negative = inhibition, usual class: inhibitors | 200,000 compounds, 0.01% hits | AID 1487; active = well fitted inhibition curve with a large enough effect in the signal ratio, with a control signal flat, not every such curve was filed as active; inconclusive = small, poorly fitted or top-dose-only effect, or effect the other way, or a change in a side signal; the % refers to the signal ratio; also: potency is read from the fitted curve at half-maximal effect; % is scaled to controls: 0 for no effect and ±100 for the full control effect
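S3 HeLa stable clones carrying a lamin A-EGFP splicing minigene plus DsRed2 were seeded at 600 cells/well in Opti-MEM with 2% FBS, pin-dosed and incubated 48 h at 37°C. Acumen cytometry (488 nm) gave the GFP/RFP total-intensity ratio.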
Sfp inh: Sfp phosphopantetheinyl transferase inhibition; Q9F4F7; Biochemical Sfp PPTase activity, qHTS; Potency, µM, for the others: max response, negative = inhibition, most hits filed as inhibitors; 310,000 tested, 3.5% active; AID 1490; active = well fitted inhibition curve with a large enough effect; inconclusive = small, poorly fitted or top-dose-only effect, or another doubt; inactive = no such curve, though single readings can be large or run the other way;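 also: the enzyme is Sfp with the accession as filed and its product quenches rhodamine fluorescence; potency is read from the fitted curve at half-maximal effect; 0% = enzyme reaction without inhibitor and -100% = no enzyme wells; top concentration of the series not given in the record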
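Compounds were incubated with enzyme (final 15 nM) for 15 min at room temperature before substrate addition started the reaction. Fluorescence at 525 nm excitation, 598 nm emission was recorded immediately and after 30 minutes.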
ALDH1A1 block: inhibitors of human aldehyde dehydrogenase 1A1; P00352; Purified ALDH1A1, NADH fluorescence, propionaldehyde substrate; Potency, µM (highest dose often 75.3 µM), for inactives: at the top dose activity, negative = inhibition, most hits filed as inhibitors; 220,000 compounds, 7.3% hits; active = well fitted inhibition curve with a large enough effect, not every such curve was filed as active; inconclusive = small, poorly fitted or top-dose-only effect, or another doubt; inactive = no such curve, though single readings can be large or run the other way;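 also: potency is read from the fitted curve at half-maximal effect; plate controls were no enzyme wells and a reference inhibitor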
G9a block: inhibitors of human histone lysine methyltransferase G9a; Q96KQ7; G9a H3K9 monomethylation, AlphaScreen, 2 h; Potency, µM (doses to about 102 µM), for the others: top-dose activity, negative = inhibition, hits mostly inhibitors; 350,000 compounds, 8.8% hits; AID 504332; also: potency is read from the fitted curve at half-maximal effect; % is scaled to controls: 0 for no effect and ±100 for the full control effect; nearly all actives have a fitted effect of over 75% in size
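Signal arises when biotinylated H3K9 peptide, once monomethylated, bridges streptavidin donor and antibody-captured acceptor beads. Enzyme at 20 nM was preincubated 15 min with test compounds; peptide 500 nM and SAM 20 uM then reacted for 2 h.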
The depositor's hits bear a star; ? = inconclusive; . = no result; [ ] = another dose, or the depositor's remark. Sampled rows, rich in hits. Any-hit rate of the full collection: about 13%. Unless noted, calls follow the shape of the dose curve; as a rule, active = well fitted curve in the direction sought with a large enough effect; inconclusive = small, poorly fitted or top-dose-only effect, or another doubt; inactive = no such curve, though single readings can be large; an effect the other way counts as inactive or inconclusive.

SMILES	JMJD2E inh	miR-21 reporter	Lamin A splicing	Sfp inh	ALDH1A1 block	G9a block
CCc1ccc(NS(=O)(=O)c2ccc3[nH]cc(C(=O)NCc4ccc(C)cc4)c(=O)c3c2)cc1	.	5%	.	.	.	-7%[59 µM]
CC(=O)OC[C@@H]1O[C@H](C/C=N\O[C@@H](C)c2cn([C@H](CO)Cc3ccccc3)nn2)C=C[C@@H]1OC(C)=O	.	.	.	5%	11%[13.5 µM]	.
COc1ccc(Br)cc1CNC(=O)c1ccc2c(c1)nc1n2CCCCC1	.	0%	?	.	.	4%[59 µM]
N#CCCNC(=O)CCN1CCOCC1	-16%	4%	6%	8%	10%	28µM*
O=C(CCC(=O)CCN1CCCCC1)CCN1CCCCC1	0%	-4%	6%	-4%	0.63µM*	13µM*
N#CCCNC(=O)CCN1CCCCC1	10%	-3%	0%	13%	5%	56µM*
O=C(CCC1CCCC1)NCCCN1CCOCC1	-2%	-6%	11%	22%	?	-11%[12.7 µM]
NNC(=O)CCN1CCCCC1	26%	-1%	14%[46 µM]	4%	15%	5%
COc1ccccc1NC(=O)NC1(C(=O)N2CCC(C)CC2)CCCCC1	.	1%	.	6%	.	-7%
CCCCN(CCCC)CCNC(=O)c1cc(=O)[nH]c2ccc(S(=O)(=O)N3CCCCCC3)cc12	.	-3%	?	.	.	3%[59 µM]
O=S1(=O)c2ccccc2N(Cc2ccccc2)c2ccccc21	.	-19%	-3%[46 µM]	.	.	-5%[59 µM]
CCOC(=O)c1ccc(OCC2c3cc(OC)c(OC)cc3CCN2C(=O)Cc2ccc(F)cc2)cc1 (stereo unspecified)	.	18%	-27%[46 µM]	.	.	-5%[59 µM]
COc1cc(/C=C/[N+](=O)[O-])ccc1OC(=O)c1cc2ccccc2oc1=O	.	7%	.	3.5µM*	.	.
COc1ccccc1OC(=O)c1cc2ccccc2oc1=O	.	-6%	.	22%	.	35%
COc1ccc(CN(C)C(=O)CCN=C2NS(=O)(=O)c3ccccc32)c(OC)c1	.	.	.	.	.	21%[12.7 µM]
COc1ccc(C(=O)NC(=S)Nc2ccc(CN3CCOCC3)cc2)cc1Cl	.	12%	.	-12%	.	40µM*
COc1ccc(C(=O)NC(=S)Nc2ccc(CN3CCCCC3)cc2)cc1Cl	4%	-16%	?	10%	?	13µM*
COc1ccc(Cl)cc1NC(=O)c1cc(C)nc2c1c(C)nn2-c1ccccc1	.	1%	-3%[46 µM]	.	.	2%[59 µM]
CCOCCCNC(=O)CN1C(=O)CCn2nc(-c3cccn3C)cc21	.	0%	-6%[46 µM]	.	.	-3%[59 µM]
CC1CCN(CCNC(=O)c2ccc3c(=O)n(Cc4ccc(Cl)cc4)c(=S)[nH]c3c2)CC1	.	-5%	.	-18%	.	11%
O=C(NCCCN1CCCC1)c1ccc(Cn2c(=S)[nH]c3ccc(Br)cc3c2=O)cc1	8%	-16%	-19%[46 µM]	-9%	22µM*	22µM*
O=C(NCCN1CCCC1)c1ccc(Cn2c(=S)[nH]c3ccc(Br)cc3c2=O)cc1	0%	-18%	.	-1%	-10%	50µM*
CCOc1cc2[nH]c(=S)n(Cc3ccc(C(=O)NCCN(CC)CC)cc3)c(=O)c2cc1OCC	.	-14%	.	-7%	.	35µM*
COCCCNC(=O)c1ccc2c(=O)n(Cc3ccc(Cl)cc3)c(=S)[nH]c2c1	.	-2%	.	-13%	.	-4%
Cc1ccc([N+](=O)[O-])cc1S(=O)(=O)Nc1ccc(-c2ccc(N3CCCC3)nn2)cc1	.	.	.	.	.	-2%[2.33 µM]
CCOC(=O)C1=C(N)n2c(s/c(=C\c3ccco3)c2=O)=C(C(=O)OCC)C1c1ccco1 (stereo unspecified)	-26%	23%	?	-13%	?	?
CCOC(=O)C1=C(N)n2c(s/c(=C\c3ccco3)c2=O)=C(C(=O)OC(C)C)C1c1ccco1 (stereo unspecified)	?	-4%	-6%	-7%	?	28µM*
COc1ccc(-c2onc(C)c2C)cc1S(=O)(=O)Nc1cc(Cl)ccc1C	.	27%	.	.	.	-19%[59 µM]
O=C1c2ccccc2C(=O)N1Cc1ccc2c(c1)OCO2	4%	-2%	-2%	9%	8%	-5%[12.7 µM]
C=C1c2ccccc2NC(=S)N1Cc1ccc2c(c1)OCO2	4%	-37%	?	-20%	-12%	32µM*
Cc1cccc(C(=O)Nc2cccc(C(=O)N3CCOCC3)c2)c1	7%	-17%	-3%	18%	-7%	12%[59 µM]
CC(=O)/C(=N/Nc1cccc(C)c1)N1CCOCC1	-7%	-1%	?	-5%	?	0.63µM*
CC(=O)N1CCc2cc(CNS(=O)(=O)c3ccc(Cl)s3)ccc21	.	-38%	-11%[46 µM]	.	.	6%[59 µM]
COC(=O)CN1C(=O)CSc2ccc(S(=O)(=O)Nc3cccc(Cl)c3C)cc21	.	5%	.	.	.	-8%[59 µM]
C=CCn1c(SCC(=O)c2ccc(Br)cc2)nnc1C(CC(C)C)NC(=O)c1cccs1 (stereo unspecified)	-9%	7%	4%	0%	?	50µM*
CC(C)CN(C[C@@H](O)[C@H](Cc1ccccc1)NC(=O)O[C@H]1CO[C@H]2OCC[C@H]21)S(=O)(=O)c1ccc(N)cc1	.	.	.	12%	.	8%[12.7 µM]
O=C(NCc1ccc(Cl)cc1)c1cc2cccc3c2n1CCS3	.	17%	.	.	.	1%[59 µM]
Cc1ccc(C)n1Cc1ccc(C(=O)O)cc1	4.5µM*	-1%	3%	?	?	8.9µM*
Cc1cc(C)n(Cc2ccc(C(=O)O)cc2)n1	1%	-2%	8%	7%	10%	14%
O=C1NC(c2cccc([N+](=O)[O-])c2)=CCN1c1ccccc1O	-16%	-4%	?	8%	-5%	19µM*

The closing 2 compounds of the part before are carried over, then new ones follow:
SMILES	JMJD2E inh	miR-21 reporter	Lamin A splicing	Sfp inh	ALDH1A1 block	G9a block
Cc1cc(C)n(Cc2ccc(C(=O)O)cc2)n1	1%	-2%	8%	7%	10%	14%
O=C1NC(c2cccc([N+](=O)[O-])c2)=CCN1c1ccccc1O	-16%	-4%	?	8%	-5%	19µM*
CN1C(=O)C(C)(C)N(C(=O)c2cccc([N+](=O)[O-])c2)c2ccccc21	.	1%	.	14%	.	-3%
Cc1ccc(S(=O)(=O)n2nc(-c3ccco3)nc2N)cc1	-3%	-1%	.	89µM*	?	.
COc1ccc(S(=O)(=O)n2nc(-c3ccco3)nc2NCc2ccc(N(C)C)cc2)cc1	.	-45%	-16%[46 µM]	.	.	11µM*
CN(C)c1ccc(CNc2nc(-c3ccco3)nn2S(C)(=O)=O)cc1	.	-72%	3%[46 µM]	.	.	?
Cc1ccc(S(=O)(=O)n2nc(-c3ccco3)nc2NCc2ccc(N(C)C)cc2)cc1	.	-44%	?	.	.	8.9µM*
CN(C)c1ccc(CNc2nc(-c3ccccc3)nn2S(C)(=O)=O)cc1	-5%	-44%	14%[46 µM]	7%	?	28µM*
CCC(=O)N1CCc2cc(S(=O)(=O)NC(CC(C)C)C(=O)Nc3ccc(CC)cc3)ccc21 (stereo unspecified)	.	-14%	.	.	.	6%[59 µM]
COc1cc2[nH]c(=O)n(CCCC(=O)N3CC=C(c4ccccc4)CC3)c(=O)c2cc1OC	?	-4%	0%	21%	?	?

Three of the entries above in order of their number in miR-21 reporter, high to low.
canonical_smiles | miR-21 reporter
CN1C(=O)C(C)(C)N(C(=O)c2cccc([N+](=O)[O-])c2)c2ccccc21 | 1%
COc1cc2[nH]c(=O)n(CCCC(=O)N3CC=C(c4ccccc4)CC3)c(=O)c2cc1OC | -4%
Cc1ccc(S(=O)(=O)n2nc(-c3ccco3)nc2NCc2ccc(N(C)C)cc2)cc1 | -44%
